# scFv variants of Ab-14 (light chain) against a SARS-CoV-2 spike peptide

The target is the same throughout: PDVDLGDISGINAS, from the HR2 region of SARS-CoV-2 spike.

Parent: Ab-14, a human scFv built as VH, a (GGGGS)3 linker, VL. Only the CDRs of the light chain vary.
VH: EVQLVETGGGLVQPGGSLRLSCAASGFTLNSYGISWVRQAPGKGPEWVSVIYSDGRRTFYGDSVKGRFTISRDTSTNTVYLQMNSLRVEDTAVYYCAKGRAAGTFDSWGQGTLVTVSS
VL: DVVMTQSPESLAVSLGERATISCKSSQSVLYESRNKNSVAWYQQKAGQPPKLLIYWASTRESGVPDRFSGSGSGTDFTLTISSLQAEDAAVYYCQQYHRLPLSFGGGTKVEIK

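The starting antibody came from a phage panning campaign against this peptide. This is the validation round: designs drawn from the data on random variants, tested in the same kind of assay. Their group label is 14L_En_Gen (En: ensemble of fine-tuned language models; Gen: genetic algorithm). Affinity was read by AlphaSeq, a pooled yeast mating assay with surface-displayed partners. The frequency of each diploid, read from paired DNA barcodes, reflects how well the two displayed proteins bind. A regression on co-assayed BCL2-family reference pairs converts the normalised counts of each replicate to an apparent Kd. The assay was run in six technical replicates.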

The whole VL of each variant is written out.
Affinities are written as log10 Kd with Kd in nM; a lower number is a better binder.
A pair that was not seen in that replicate is written "n.d."; this usually means weak binding, but a binder can also be missed.

VL,"log10 Kd, replicates",empty controls
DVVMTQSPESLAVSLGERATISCMIYGADRELGRATNSIAWYQQKAGQPPKLLIYDNVTRYNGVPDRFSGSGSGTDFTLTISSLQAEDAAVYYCQQYERLPLSFGGGTKVEIK,n.d. n.d. n.d. 4.53 3.02 n.d.,0 of 18
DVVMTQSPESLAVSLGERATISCSLYELSVELSGKTHSVAWYQQKAGQPPKLLIYDNSTRGDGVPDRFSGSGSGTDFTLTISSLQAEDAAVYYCQQYFRLPLEFGGGTKVEIK,1.26 0.94 1.09 1.01 0.95 1.42,1 of 18 (2.85)
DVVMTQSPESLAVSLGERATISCMVSQLMLWGLHAKNSIAWYQQKAGQPPKLLIYEAETRGNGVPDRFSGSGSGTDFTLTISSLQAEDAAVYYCQQYDRLPLFFGGGTKVEIK,1.35 n.d. 0.65 0.53 2.17 0.71,0 of 18
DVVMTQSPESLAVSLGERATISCQLSMITGHMSVSKNNVAWYQQKAGQPPKLLIYEMETRVNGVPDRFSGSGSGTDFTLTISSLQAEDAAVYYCQQYDRLPLSFGGGTKVEIK,1.59 n.d. n.d. n.d. 1.32 n.d.,0 of 18
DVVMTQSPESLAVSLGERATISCHMSAVTMLGMRNRNSVAWYQQKAGQPPKLLIYQMTTRENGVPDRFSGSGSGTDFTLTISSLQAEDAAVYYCQQYDRLPLAFGGGTKVEIK,1.20 1.09 1.07 0.96 1.09 0.80,0 of 18
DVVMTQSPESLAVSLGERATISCIVSGLMLWGMHVKNSIAWYQQKAGQPPKLLIYEAETRINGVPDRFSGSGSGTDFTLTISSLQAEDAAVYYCQQYERLPLFFGGGTKVEIK,1.73 n.d. n.d. 1.18 n.d. n.d.,0 of 18
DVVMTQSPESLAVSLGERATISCMISNVMNTLTRQGNNVAWYQQKAGQPPKLLIYDLQEREDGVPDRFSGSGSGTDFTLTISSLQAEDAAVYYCQQYFRLPLSFGGGTKVEIK,0.77 -0.26 0.14 -1.08 -0.32 -0.42,0 of 18
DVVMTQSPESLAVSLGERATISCKITGTMRFEQKASNNIAWYQQKAGQPPKLLIYEVTQRTKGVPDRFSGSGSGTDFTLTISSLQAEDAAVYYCQQYYRLPLSFGGGTKVEIK,0.80 0.43 0.29 0.75 0.50 0.58,1 of 18 (2.91)
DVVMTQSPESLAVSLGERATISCKLGMTLNLEMHKKDNVAWYQQKAGQPPKLLIYDLVTRENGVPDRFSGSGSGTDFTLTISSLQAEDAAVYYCQQYHRLPLSFGGGTKVEIK,2.98 1.70 0.90 1.51 1.23 1.04,0 of 18
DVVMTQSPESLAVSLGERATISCKLTMITGLEKVSTNNVAWYQQKAGQPPKLLIYEMETRERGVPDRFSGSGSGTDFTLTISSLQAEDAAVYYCQQYNRLPLAFGGGTKVEIK,0.48 -0.03 0.15 -0.19 -0.08 0.01,0 of 18
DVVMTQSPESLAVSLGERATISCTLYGLTNSMSKNKDNVAWYQQKAGQPPKLLIYEMSTREAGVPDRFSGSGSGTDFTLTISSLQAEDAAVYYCQQYDRLPLVFGGGTKVEIK,1.46 1.49 1.50 1.31 0.96 1.27,0 of 18
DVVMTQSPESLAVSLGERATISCKVSEFMRGLMQRKDSIAWYQQKAGQPPKLLIYDNVTRQNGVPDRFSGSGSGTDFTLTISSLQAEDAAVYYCQQYDRLPLSFGGGTKVEIK,0.68 1.06 0.92 0.89 0.41 1.54,1 of 18 (2.96)
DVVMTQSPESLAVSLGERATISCKVYQGINGHYSAHNSIAWYQQKAGQPPKLLIYQEETRVDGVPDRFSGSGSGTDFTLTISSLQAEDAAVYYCQQYAHLPLSFGGGTKVEIK,1.05 0.70 0.25 0.54 0.86 0.38,0 of 18
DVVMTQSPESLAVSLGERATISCTISQMTSWMSNKKNNVAWYQQKAGQPPKLLIYEVTTREAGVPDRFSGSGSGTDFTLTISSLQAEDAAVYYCQQYDRLPLAFGGGTKVEIK,1.58 0.86 n.d. n.d. 1.26 1.53,0 of 18
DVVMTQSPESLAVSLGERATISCTLYGLSMSMSRNKNNVAWYQQKAGQPPKLLIYEMTTREKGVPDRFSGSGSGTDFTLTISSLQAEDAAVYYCQQYDRLPLVFGGGTKVEIK,0.61 0.77 0.81 0.76 0.85 0.94,1 of 18 (2.67)
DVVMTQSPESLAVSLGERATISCHIGLATMLEETVRNSVAWYQQKAGQPPKLLIYNNSTREDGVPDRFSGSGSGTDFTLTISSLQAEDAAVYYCQQYDRLPLSFGGGTKVEIK,3.52 2.35 2.46 2.20 2.44 2.87,1 of 18 (3.33)
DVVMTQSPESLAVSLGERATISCHVSMLTLGGLKNRNSVAWYQQKAGQPPKLLIYQMTTRENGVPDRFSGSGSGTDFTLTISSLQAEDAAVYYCQQYDRLPLAFGGGTKVEIK,1.34 2.36 1.93 2.10 1.08 1.65,0 of 18
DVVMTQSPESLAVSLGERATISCMVNGIMDHLSKQTNNVAWYQQKAGQPPKLLIYETTTREMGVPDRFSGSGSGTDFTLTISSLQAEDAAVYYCQQYDRLPLSFGGGTKVEIK,0.80 0.76 0.87 0.90 0.71 1.07,0 of 18
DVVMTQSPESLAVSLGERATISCMMSQVTGLGQRHRNNVAWYQQKAGQPPKLLIYQTSTREEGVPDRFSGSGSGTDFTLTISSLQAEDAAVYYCQQYDRLPLIFGGGTKVEIK,1.39 1.06 1.58 1.10 0.99 1.56,0 of 18
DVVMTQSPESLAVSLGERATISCKVSEFMRGLLMRKNSIAWYQQKAGQPPKLLIYDNVTRSNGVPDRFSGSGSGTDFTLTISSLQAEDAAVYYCQQYDRLPLSFGGGTKVEIK,n.d. n.d. n.d. 1.99 2.53 2.23,1 of 18 (1.84)
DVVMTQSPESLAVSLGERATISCMISQLYNMGTFAINSVAWYQQKAGQPPKLLIYQASERCNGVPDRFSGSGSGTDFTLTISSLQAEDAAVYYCQQYDRLPLIFGGGTKVEIK,n.d. 2.27 n.d. 2.93 n.d. 2.24,1 of 18 (1.79)
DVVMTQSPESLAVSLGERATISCSISGFMKSLSAHANSVAWYQQKAGQPPKLLIYDMTNREDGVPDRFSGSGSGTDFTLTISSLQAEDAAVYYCQQYDRLPLSFGGGTKVEIK,0.09 0.58 -0.37 1.19 0.99 0.53,0 of 18
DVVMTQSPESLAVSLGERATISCHMSMLTLQGMRQRNSVAWYQQKAGQPPKLLIYQMTTRENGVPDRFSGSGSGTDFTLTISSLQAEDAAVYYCQQYDRLPLAFGGGTKVEIK,1.50 1.45 3.34 1.77 3.59 4.26,0 of 18
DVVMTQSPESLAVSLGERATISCMMSQVTGSGQRHRNNVAWYQQKAGQPPKLLIYQTSTREIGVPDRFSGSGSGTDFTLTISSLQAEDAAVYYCQQYDRLPLIFGGGTKVEIK,0.68 0.95 0.64 0.62 0.85 1.10,0 of 18

The 2 strongest on average among those seen in every replicate, once more:

| VL | log10 Kd, replicates | empty controls |
|---|---|---|
| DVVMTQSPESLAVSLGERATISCMISNVMNTLTRQGNNVAWYQQKAGQPPKLLIYDLQEREDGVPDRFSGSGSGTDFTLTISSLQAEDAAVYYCQQYFRLPLSFGGGTKVEIK | 0.77 -0.26 0.14 -1.08 -0.32 -0.42 | 0 of 18 |
| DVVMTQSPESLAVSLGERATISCKLTMITGLEKVSTNNVAWYQQKAGQPPKLLIYEMETRERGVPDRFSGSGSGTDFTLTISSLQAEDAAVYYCQQYNRLPLAFGGGTKVEIK | 0.48 -0.03 0.15 -0.19 -0.08 0.01 | 0 of 18 |

The authors' rule: three or more of the six replicates give a measured affinity, fewer mean a poor binder.
As a blank, each scFv also met three strains without target: over all light chain designs, 4% of these pairings were detected, typically at 2.64 and seldom below 1.59. The control count says in how many pairings with the empty strains this scFv gave a signal, with their mean in brackets.
A sequence measured in both rounds can read differently, since the two assays cover different ranges.

Values reported by Li et al. 2023, doi:10.1038/s41467-023-39022-2 (FLAb copy).